Here are results for 3 compounds from US8252329B2.

Values after ≈ are worked out from the molar mass of the structure shown. Values joined by “and” are separate entries in the source; they are usually repeats but may differ in a detail not shown here. Identical values can stand only once. Only a part of the results on these compounds is given; other tests are left out.

The conditions of data set [1]: cited from earlier work.
Data set [2] in a line: Bioavailability and PK of sufentanil, sublingual formulation #44 vs IV (Example 7). The conditions noted are these: Beagle dog, IV bolus.
Data set [3] in a line: PK of sufentanil from fast, intermediate and slow sublingual formulations vs IV (Example 10). The following applies: Beagle dog; IV bolus Sufenta, 5 μg sufentanil base; n=3.
Data set [4] is described as follows: PK of sufentanil from NanoTab formulations in human volunteers, crossover clinical study (Example 13). The conditions noted are these: IV infusion, 5 μg, normalized by literature IV half-life 148 min.
A short description of data set [5]: PK of sufentanil after sublingual solution instillation or oral ingestion of NanoTab vs IV (Examples 8, 9). The conditions noted are these: Beagle dog.
Data set [6] is described as follows: PK of sublingual fentanyl formulations vs IV Sublimaze (Example 11). The following applies: Beagle dog; IV bolus Sublimaze, 70 μg fentanyl base; n=3.
Data set [7] is described as follows: PK of sublingual alfentanil formulation vs IV (Example 12). The conditions noted are these: Beagle dog.
Setting [8] is: IV bolus Sufenta, 5 μg sufentanil base.
The mark [9] stands for this setting: sublingual instillation of solution, 5 μg, n=6.
Where [10] appears, read: IV bolus Alfenta, 253 μg alfentanil base, n=3.

Broadly, the Cmax is the highest concentration seen after dosing. The term pKa denotes the pH at which an ionisable group is half protonated.

Regarding `CCC(=O)N(c1ccccc1)C1(COC)CCN(CCc2cccs2)CC1`, the Solubility in water in data set [1] is 97 µg/mL (≈ 251 µM). Further, in data set [1], the logP (o/w) is 3.38. The “Tonset (time to reach 50% of Cmax)” value in data set [2] (5 μg sufentanil base, n=3) is 0.05 ± 0.06 min; in data set [3], 0.6 ± 0.0 min; in data set [5] (setting [8]), 0.5 ± 0.03 min; in data set [5] (setting [9]), 2.7 ± 1.3 min. The “Therapeutic Time Ratio” value in data set [2] (5 μg, time above 50% of Cmax / literature IV half-life 139 min, listed as sufentanil) is listed as 0.05; in data set [4] it was 0.067. For the same compound, the Cmax in data set [3] was 1002.1 ± 149.1 pg/mL; in data set [5] (setting [8]), 594.7 ± 98.1 pg/mL; in data set [5] (setting [9]) it was 209.3 ± 165.5 pg/mL. In data set [3], the “Plasma Half-life” value came out at 7.9 ± 2.5 min. For the same compound, the “coefficient of variation of Cmax” value in data set [5] (sublingual instillation of solution, 5 μg) was 72%. Also, the “F (bioavailability compared to IV)” value is 40.0 ± 32.5% in data set [5] (sublingual instillation of solution, 5 μg, n=6, listed as Sufentanil solution); 40% and 40.0±32.5% in data set [5] (sublingual instillation of solution, 5 μg, n=6, listed as sufentanil).

For the compound `CCC(=O)N(c1ccccc1)C1CCN(CCc2ccccc2)CC1`, in data set [1], the Solubility in water is 200 µg/mL (≈ 594 µM) and the logP (o/w) was 2.93. The “Tonset (time to reach 50% of Cmax)” value in data set [6] is 0.6 ± 0.0 min.

For the compound `CCC(=O)N(c1ccccc1)C1(COC)CCN(CCn2nnn(CC)c2=O)CC1`, in data set [1], the Solubility in water is 130000 µg/mL (≈ 312000 µM), the logP (o/w) is 0.006 and the pKa is 6.5. For the same compound, in data set [7] (setting [10]), the “Plasma Half-life” value turned out to be 4.4 min and the “Tonset (time to reach 50% of Cmax)” value amounted to 0.5 ± 0.05 min. Further, the “Therapeutic Time Ratio” value in data set [7] (IV bolus, 253 μg, normalized by published IV half-life 104 min, listed as alfentanil) was determined as 0.04.
